# From US7045283B2, “Methods of high-throughput screening for internalizing antibodies” (The Regents of the University of California, priority 2000, dated 2006)
# System: ErbB2-expressing SKBR3 tumor cells
# Test: Chelated Ligand Internalization Assay (CLIA) on SKBR3 cells
# Type: cell-based, Human
# Conditions: four hours of internalization, washed with 1 mM EDTA, fluorescence
# Description: Liposomes are prepared from 1-palmitoyl-2-oleoyl-phosphatidylcholine (POPC) and cholesterol (6:4 molar ratio) and varying amounts of NTA-DOGS (Avanti Lipids; 0.5–5 mol. % of POPC amount) by lipid film hydration in solution containing 35 mM 8-hydroxypyrene-1,3,5-trisulfonic acid sodium salt (HPTS) (Molecular Probes Inc., Oreg., USA), pH 7.0, adjusted to the osmolality of 280 mmol/kg with NaCl. In some cases, the liposomes were made using 1,2-distearoyl-phosphatidyicholine (DSPC) instead of POPC, and the lipophilic fluorescent labels DiIC18(3)-DS and DiIC18(5)-DS (0.1–1 mol. % of the liposome phospholipid) were used instead of HPTS, with the same results. In these cases, hydration is at 55–60° C. in an aqueous 140 mM NaCl buffered with 5–20 mM 4-(N-2-hydroxyethyl-piperasino)ethylsulfonic acid sodium salt (HEPES) to pH 7.2–7.4. […]
# Human breast cancer cells SKBR3, SKOV3, BT474, MCF7, MDA-MB-453, MDA-MB-468 (American Type Culture Collection, ATCC) were grown to 80–90% confluence in the media type recommended by ATCC supplemented with 10% fetal calf serum (FCS) and harvested by trypsinization using standard techniques. […] Cells were lysed in 50 PL 0.01 M NaOH before reading fluorescence at 460/530 nm in a RC4 microfluorimeter (BIOTEK).
substance,measurement,value
"Herceptin: recombinant, humanized anti-HER2 monoclonal IgG (Genentech)",internalization of NTA-liposomes (CLIA),did not increase the uptake
